Screening data as filed in PubChem.
Hits are enriched below; roughly 2.2% of the tested compounds scored in any of these assays.
S100A4 inh HTS: inhibitors of S100A4-myosin IIA peptide binding, primary screen, biochemical, fluorescence polarization, TAMRA-MyoIIA peptide | inhibition, % at 10.7 µM | 0.14% of 360,000 active;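 active means mean inhibition of at least 70% across replicates, with every replicate also reaching that level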
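Material: human S100A4 monomer with TAMRA-labelled myosin IIA peptide; buffer or medium: HEPES pH 7.2 with CaCl2, KCl, NaCl, DTT, Triton; compound dosing: one concentration per compound; schedule: 5 min incubation before reading; benchmarks: neutral control DMSO, positive control TFP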
FGF22 binding-1: binders of human FGF22 protein, primary screen, FGF22 synaptogenesis inhibitor project, biophysical, thermal shift, single point; Fibroblast growth factor 22 (Homo sapiens), Q9HCT0; recombinant FGF22 thermal shift, SYPRO orange fluorescence; percent of sucrose octasulfate shift, DMSO zero; activity (Tm shift, normalised), % at 9.99 µM; 1.5% of 340,000 active;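 active means mean Tm shift, scaled 0 neutral to 100 positive control, at about 1.3% or above, every replicate too, limit read from the data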
SIRT5 inh: SIRT5 desuccinylase inhibitors, primary screen, biochemical, fluorescence imaging, single point, set 5; inhibition, % at 15 µM; NAD-dependent protein deacylase sirtuin-5, mitochondrial (Homo sapiens), Q9NXA8; Purified SirT5, succinyl-peptide AMC, trypsin-coupled fluorescence; AID 652115, 2013; 1.1% of 330,000 active; in the data active means inhibition above about 15%
Yeast UUG start: modulators of start codon recognition fidelity in yeast. activity score, % at 18.7 µM. S. cerevisiae UUG-firefly luciferase reporter, luminescence/redox ratio. 350,000 compounds, 0.13% hits;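 active means replicate mean at a twofold rise or more, about +100% in these data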;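 further: firefly luciferase made from a UUG start codon reports start codon fidelity; reporter light over untreated wells divided by growth signal over untreated wells; some hits fall short of that in this replicate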
PDI inh: inhibitors of human PDI, primary screen, biochemical, turbidity, single point, plate reader; AID 588391, 2011; 0.052% of 350,000 active; inhibition, % at 10 µM; PDI insulin aggregation turbidity, A650, 90 min;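 active means mean inhibition across replicates of 30% or more, whatever share of single replicates reach that level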
ERp5 block: inhibitors of ERp5-driven insulin aggregation, primary screen, biochemical, turbidity, absorbance 650 nm, single point; 0.05% of 350,000 active; 90 min; inhibition, % at 9.99 µM; Protein disulfide-isomerase A6 (Homo sapiens), Q15084; AID 651711, 2012;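 active means mean replicate inhibition above about 25%, with every replicate also reaching it, limit read from the data, passing the limit was not always enough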
FGF22 binding-2: binders of human FGF22 protein, dose response, FGF22 synaptogenesis inhibitor project, biophysical, thermal shift, cherry-pick retest; shares compounds with FGF22 binding-1; recombinant FGF22 thermal shift, SYPRO orange fluorescence; thermal shift activity, °C (ΔTm) at 38 µM; 2% of 1,000 active;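 active means fitted rise in melting shift crosses a set limit at or below the top valid dose tested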
FGF22 TSA DP: binders of human FGF22 protein, dose response, FGF22 synaptogenesis inhibitor project, biophysical, thermal shift, dry powder; shares compounds with FGF22 binding-1; Thermal shift assay, SYPRO orange, melting temperature shift; Tm shift (activity), % at 38 µM; 50 tested, under 10 active;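 active means compounds whose fitted dose curve of melting temperature shift rises past a set threshold within the tested doses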
TSA no protein: compound-only thermal shift signal without protein, dose response, artefact control for FGF22 binder project, biochemical, cherry-picked samples, RT-PCR instrument. 2% of 1,000 active. shares compounds with FGF22 binding-1. compound-only SYPRO orange thermal shift counter-screen, no protein. AC50, µM (top dose mostly 38 µM);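 active means rising signal whose fitted curve reaches the 0.54 level within the top valid dose, showing a melting point, actives reach about 13 µM in these data; inactive means the rest, including activity in the opposite direction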; further: value is where the raw curve crosses a fixed level and not half-maximal
* hit, by the source's call; i = inactive; x = no result.

SMILES	S100A4 inh HTS	FGF22 binding-1	SIRT5 inh	Yeast UUG start	PDI inh	ERp5 block	FGF22 binding-2	TSA no protein	others
C[C@H](CO)N1C[C@H](C)[C@@H](CN(C)Cc2ccc(C(=O)O)cc2)OCCCC[C@H](C)Oc2ccc(NS(=O)(=O)c3cccs3)cc2C1=O	-14	0	-4	12	x	-2	x	x
Cc1cc(C)n(-c2ccc(C(=O)Nc3ccc(S(=O)(=O)N(C)C)cc3)cc2)n1	-7	1.5*	3	x	9	2	-0.24	i
Cc1ccc(S(=O)(=O)NCCSc2nnnn2-c2ccccc2)cc1	-5	35*	0	-14	-3	-5	0.19	i
N#C/C(=C\c1ccc(N2CCOCC2)c([N+](=O)[O-])c1)c1nc2ccccc2[nH]1	8	1.7*	x	x	2	0	-0.052	i
O=C(Nc1ccc(S(=O)(=O)N2CCOCC2)cc1)c1ccc(F)cc1	-1	1.4*	-6	5	-5	4	x	i	FGF22 TSA DP=0
O=C(CNC(=O)c1ccc(S(=O)(=O)N2CCCC2)cc1)N/N=C/c1ccc(F)cc1	-6	1.4*	0	x	9	-5	-0.03	i
CC(=O)c1ccc(OCCCC(=O)Nc2ccc(S(=O)(=O)N3CCOCC3)cc2)cc1	-2	1.9*	-3	x	2	-7	-0.23	i
Cc1ccc(S(=O)(=O)Nc2ccc3c(c2)C(=O)N([C@@H](C)CO)C[C@H](C)[C@H](CN(C)C(=O)Nc2cccc4ccccc24)OCCCC[C@H](C)O3)cc1	6	0	3	-9	x	-3	x	x
C[C@@H]1CN([C@@H](C)CO)C(=O)Cc2cc(NC(=O)Nc3ccc(F)cc3)ccc2O[C@@H]1CN(C)Cc1ccc(C(F)(F)F)cc1	3	0	10	x	x	-1	x	x
COc1ccccc1NC(=O)c1ccc(NC(=O)COC(=O)c2ccc(O)cc2)cc1	-1	1.7*	-1	-3	-8	7	0.009	i
Cc1ccc(S(=O)(=O)N[C@@H]2C=C[C@@H](CC(=O)N3CCc4ccccc4C3)O[C@@H]2CO)cc1	3	1.3*	-4	-3	x	6	0.12	i
COc1ccc(S(=O)(=O)N[C@@H]2CC[C@H](CC(=O)N3CCc4ccccc4C3)O[C@@H]2CO)cc1	0	-1	1	0	x	1	x	x
COc1ccc(S(=O)(=O)N[C@H]2CC[C@H](CC(=O)N3CCc4ccccc4C3)O[C@@H]2CO)cc1	5	17*	-1	-5	x	0	-0.011	i
O=C(C[C@@H]1CC[C@H](NC(=O)c2cccnc2)[C@H](CO)O1)NCc1ccncn1	4	0	-6	-21	x	-1	x	x
O=C(CCNC(=O)c1ccccc1Cl)Nc1nc2ccc(F)cc2s1	-2	2.7*	-4	-6	2	5	0.035	i
CS(=O)(=O)c1ccc2nc(NC(=O)CCNC(=O)c3ccccc3Cl)sc2c1	15	0	-5	11	-3	-18	x	x
COC(=O)COc1cc(OCC(=O)OC)c2c(C)c(Cl)c(=O)oc2c1	x	x	x	x	2	x	x	x

Arranged by SMILES length (falling): 3 of the compounds above.
SMILES	S100A4 inh HTS	FGF22 binding-1	SIRT5 inh	Yeast UUG start	PDI inh	ERp5 block	FGF22 binding-2	TSA no protein	others
COc1ccc(S(=O)(=O)N[C@@H]2CC[C@H](CC(=O)N3CCc4ccccc4C3)O[C@@H]2CO)cc1	0	-1	1	0	x	1	x	x
CC(=O)c1ccc(OCCCC(=O)Nc2ccc(S(=O)(=O)N3CCOCC3)cc2)cc1	-2	1.9*	-3	x	2	-7	-0.23	i
COC(=O)COc1cc(OCC(=O)OC)c2c(C)c(Cl)c(=O)oc2c1	x	x	x	x	2	x	x	x
